Hits are enriched below; roughly 2.5% of the tested compounds scored in any of these assays.
TrxR1 substrate: is turned over as a substrate by rat TrxR1. AID 588456. O89049. Potency, µM (doses to about 114 µM). purified TrxR1 substrate turnover, NADPH consumption readout. 0.01% of 390,000 active; further: nearly all actives have a fitted effect of over 50% in size
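Rat TrxR1, dispensed at 90 nM, was prereduced with 400 uM NADPH (final) for 5 min at ~22 deg C, then incubated with compound 15 min before 400 uM selenite. A first-read NADPH fluorescence drop versus no-compound background flagged substrates.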
miR-21 FLuc: miR-21 reporter, rising signal. HeLa miR-21 FLuc reporter, luciferase, 48 h. Potency, µM (highest dose often 38.3 µM). 340,000 tested, under 10 active. AID 2288; active = well fitted rising curve with a large enough effect; inconclusive = small, poorly fitted or top-dose-only effect; inactive = no such curve, though single readings can be large or run the other way;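 further: miR-21 action dims this reporter so a rising signal means less miR-21 action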
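Using DMEM plus 10% FBS, HeLa miR-21-FLuc cells are incubated with test compounds (final up to about 40uM) for 48 hours; firefly luciferase signal is then imaged following reagent-mediated lysis.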
TrxR1 inh: inhibitors of rat thioredoxin reductase 1; O89049; AID 588453; Potency, µM (highest dose often 114 µM), most hits filed as inhibitors; recombinant rTrxR1, NADPH fluorescence consumption, selenite substrate; 1% of 390,000 active; further: nearly all actives have a fitted effect of over 65% in size
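Rat TrxR1 (90 nM in the dispensed reagent) was pre-reduced with 400 uM NADPH for 5 min at room temperature, then incubated with compound for 15 min. After 400 uM selenite was added, NADPH fluorescence (Ex 340/Em 450 nm) was followed for 8 min.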
ClpP mod: qHTS Assay for Activators of ClpP. Potency, µM (titrated, usually from 57.5 µM). AID 651965, 2013. purified B. subtilis ClpP, FRET peptide cleavage, 20 min. ATP-dependent Clp protease proteolytic subunit (Bacillus subtilis (strain 168)), P80244. 1.9% of 340,000 active; active means well fitted falling curve with a large enough effect; inconclusive means small, poorly fitted or top-dose-only effect; inactive means no such curve, though single readings can be large or run the other way; further: the source files actives as falling curves though it sought activators and does not explain the sign; nearly all actives have a fitted effect of over 65% in size
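Purified B. subtilis ClpP, 10 microg/mL final in Tris/HCl pH8 with KCl, BSA, glycerol and Tween-20, cleaved an Abz/nitrotyrosine-quenched decapeptide. Fluorescence (ex 320, em 430) was read at 0 and 20 min at room temperature. Delta was normalized to 5.8 microM ADEP and DMSO/no-enzyme controls.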
Apoferritin bind: binds horse apoferritin like a general anesthetic. P02791. apoferritin/1-aminoanthracene competitive binding, fluorescence. Potency, µM (top dose mostly 77.5 µM), most hits filed as inhibitors. 0.074% of 350,000 active; further: nearly all actives have a fitted effect of over 20% in size
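Horse-spleen apoferritin (10 uM) in 50% saturated 1-aminoanthracene in PBS was incubated 10 min at room temperature with compound. Fluorescence (ex 380, em 535 nm) was normalized to free and bound 1-AMA, with concentration-response fitted by a four-parameter Hill equation.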
Of the large screens only hits and unclear results are named; the others gave an inactive call. Unless noted, the call rests on the fitted dose curve; in most records, active means well fitted curve in the direction sought with a large enough effect; inconclusive means small, poorly fitted or top-dose-only effect, or another doubt; inactive means no such curve, though single readings can be large; an effect the other way counts as inactive or inconclusive.

The chains behind the UniProt entries cited, without tags or fusion partners.
ATP-dependent Clp protease proteolytic subunit (Bacillus subtilis (strain 168)), P80244, UniProt P80244, whole entry, looked up: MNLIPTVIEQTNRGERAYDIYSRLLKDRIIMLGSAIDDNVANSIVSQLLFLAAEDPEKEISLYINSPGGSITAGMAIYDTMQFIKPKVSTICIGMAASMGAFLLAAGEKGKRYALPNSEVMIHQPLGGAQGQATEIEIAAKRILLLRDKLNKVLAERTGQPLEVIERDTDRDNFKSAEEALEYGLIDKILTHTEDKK

CCc1ccc(-c2cc(C(=O)N3N=C(C(F)F)CC3(O)C(F)F)c3ccccc3n2)cc1 (stereo not drawn)	ClpP mod 22µM, Apoferritin bind inconclusive
COc1ccc(C2=CC(=O)N(Nc3ccccc3)C2=O)cc1	TrxR1 inh inconclusive, Apoferritin bind inconclusive (no result: ClpP mod)
O=C1C=C(c2ccccc2)C(=O)N1Nc1ccccc1	miR-21 FLuc inconclusive, TrxR1 inh 3.2µM, Apoferritin bind inconclusive
CCOc1ccc(NC(=O)C(CC)n2c(=O)c(-c3ccccc3NC(C)=O)nc3ccccc32)cc1 (stereo not drawn)	none
COc1cccc2c1Oc1ncccc1N(C(=O)CCC(=O)NCCC(C)C)C2	none
O=C(O)CCc1ccc(-c2ccccc2)n1Cc1ccco1	TrxR1 inh inconclusive, ClpP mod 28µM
CCc1ccc(C2=CC(c3cc(Br)ccc3F)n3ncnc3N2)cc1 (stereo not drawn)	TrxR1 inh inconclusive, ClpP mod 32µM
Cc1ccc2nc(-c3ccc(NC(=O)CCN4C(=O)c5ccccc5C4=O)cc3)sc2c1	none
Cc1ccc2nc(-c3ccc(NC(=O)C(C)N4C(=O)c5ccccc5C4=O)cc3)sc2c1 (stereo not drawn)	ClpP mod 25µM
COc1cccc(CN2CC(C(=O)NCCc3ccc(C)o3)CCC2=O)c1 (stereo not drawn)	TrxR1 inh 20µM
O=C(NCc1cnc2ccccn12)C1CCC(=O)N(Cc2ccccc2F)C1 (stereo not drawn)	ClpP mod 32µM
O=C1CCCN1CCCN1CC(C(=O)N(CCO)Cc2ccccc2)CCC1=O (stereo not drawn)	ClpP mod 32µM
Cc1ccc(CN(C)C(=O)C2CCC(=O)N(CCc3ccccc3)C2)o1 (stereo not drawn)	TrxR1 inh 40µM
COc1ccc(-c2nc3scc(CCNS(=O)(=O)c4c(C)cc(C)cc4C)n3n2)cc1OC	Apoferritin bind inconclusive
CCOc1ccccc1NC(=O)N1c2ccccc2Sc2ccccc21	none
Cc1cc(C)nc(CCNC(=O)C2CCC(=O)N(Cc3ccccc3F)C2)n1 (stereo not drawn)	none
Cc1ccc(CCNC(=O)C2CCC(=O)N(Cc3ccccc3F)C2)o1 (stereo not drawn)	TrxR1 inh 56µM
CCOc1ccc(CCNC(=O)c2ccc3c(c2)N(Cc2ccccc2F)C(=O)c2ccccc2S3=O)cc1OCC (stereo not drawn)	none
C[C@@H](Nc1nc(Cl)nc2nc[nH]c12)c1ccccc1	none (no result: miR-21 FLuc, Apoferritin bind)
Cc1ccc(N(C)C(CNS(=O)(=O)c2ccccc2)c2ccccc2)cc1 (stereo not drawn)	none
O=C1C(Br)=C(c2ccccc2)C(c2ccccc2)=C1c1ccccc1	TrxR1 inh 0.71µM (no result: miR-21 FLuc, Apoferritin bind)
Cc1ccc(C)c(Nc2ncnc3c2cnn3-c2ccc(F)cc2)c1	none
CC(=O)O/N=C(/C)c1ncc(C(F)(F)F)cc1N1CCOCC1	ClpP mod 14µM
CCCCCC(=O)Nc1ccc(S(=O)(=O)Nc2nccnc2OC)cc1	ClpP mod 25µM
O=S(=O)(Nc1nc2ccccc2nc1Nc1cccc(S(=O)(=O)N2CCCCC2)c1)c1ccccc1	ClpP mod 25µM
COc1ccc(S(=O)(=O)Nc2cccc(S(=O)(=O)N3CCCCCC3)c2)cc1	none
C[C@@H]1C(=O)N(S(=O)(=O)c2ccc([N+](=O)[O-])cc2)[C@H]1c1ccc(F)cc1	TrxR1 inh inconclusive (no result: miR-21 FLuc, ClpP mod)
COc1ccc(CCNC(=O)CCCNC(=O)Cn2cnc3sc(C)c(C)c3c2=O)cc1OC	none
COc1ccccc1NC(=O)CCCNC(=O)Cn1cnc2sc(C)c(C)c2c1=O	ClpP mod 28µM
CCOc1ccc2nc(N3CCCC(C(=O)Nc4ccccc4CC)C3)sc2c1 (stereo not drawn)	none
COc1cccc(Cn2cnc3c(cnn3C(C)(C)C)c2=O)c1	none (no result: miR-21 FLuc, ClpP mod, Apoferritin bind)
Cn1c(C(c2cc3ccccc3n2C)c2cc3ccccc3n2C)cc2ccccc21	none (no result: miR-21 FLuc, Apoferritin bind)
COC(=O)c1ccccc1NC(=O)N[C@@H](C)C(=O)OC	ClpP mod 28µM
CCOC(=O)c1ccccc1NC(=O)N[C@@H](C)C(=O)OC	ClpP mod 20µM
COc1ccc(CN(C)c2ccc(-c3nc(C)no3)cc2[N+](=O)[O-])cc1	none
Cc1c(C(=O)Nc2cccc(C(F)(F)F)c2)sc2nc[nH]c(=O)c12	none
N#C/C(=C\c1c(N2CCC(C(N)=O)CC2)nc2ccccn2c1=O)C(=O)NCc1ccco1	ClpP mod 25µM
CCNC(=O)/C(C#N)=C/c1c(N2CCN(c3ccc(OC)cc3)CC2)nc2c(C)cccn2c1=O	none (no result: ClpP mod)
CCOC(=O)/C(C#N)=C/c1c(N2CCN(c3ccc(OC)cc3)CC2)nc2c(C)cccn2c1=O	ClpP mod 32µM
CCNC(=O)/C(C#N)=C/c1c(N2CCCCCC2)nc2c(C)cccn2c1=O	ClpP mod 16µM
Cc1cccn2c(=O)c(/C=C(\C#N)C(=O)NCc3ccco3)c(N3CCOCC3)nc12	none (no result: ClpP mod)
Cc1cc(C)cc(NS(=O)(=O)c2ccc(-c3cc(C)no3)cc2)c1	miR-21 FLuc inconclusive, Apoferritin bind inconclusive
COc1cc(NC(=O)c2c(C)oc3ncnc(N4CCCCC4)c23)cc(OC)c1	none
CCn1c(CN2CCN(c3ccc(OC)cc3)CC2)nc2cc(S(=O)(=O)N(C)C)ccc21	none
CCCn1c(CN2CCN(C(=O)c3ccco3)CC2)nc2cc(S(=O)(=O)N(C)C)ccc21	TrxR1 inh 20µM, ClpP mod inconclusive (no result: miR-21 FLuc, Apoferritin bind)
O=C(NCC(c1ccco1)N1CCN(c2ccc(F)cc2)CC1)c1cccs1 (stereo not drawn)	none (no result: miR-21 FLuc, ClpP mod, Apoferritin bind)
COc1ccc(N2CCN(C(CNC(=O)c3cccs3)c3ccco3)CC2)cc1 (stereo not drawn)	ClpP mod 16µM (no result: miR-21 FLuc, Apoferritin bind)
CN(C)S(=O)(=O)N(CC(=O)NCCSCc1ccccc1Cl)c1ccccc1	none
Cc1cc(NC(=O)COC(=O)c2ccc(OC(F)(F)F)cc2)no1	none (no result: miR-21 FLuc, Apoferritin bind)
COc1ccc2c(COC(=O)c3n[nH]c4ccccc34)cc(=O)oc2c1	ClpP mod 28µM
Cc1cc(NC(=O)COC(=O)c2n[nH]c3ccccc23)no1	ClpP mod 11µM
CCCCCOc1ccc(C(=O)OCC(=O)Nc2cc(C)on2)cc1	ClpP mod 18µM (no result: miR-21 FLuc, Apoferritin bind)
Cc1ccc(NC(=O)C2CCCN(c3nnc(-n4c(C)ccc4C)s3)C2)c(C)c1 (stereo not drawn)	none
CC(=O)c1sc(NC(=O)c2c(-c3ccccc3)c(-c3ccccc3)nn(C)c2=O)nc1C	none
Cc1ccc(/C=C/c2ccc(=O)n(Cc3ccc(Cl)cc3Cl)n2)cc1	ClpP mod 3.2µM
O=c1ccc(/C=C/c2ccccc2)nn1Cc1ccccc1Cl	ClpP mod inconclusive, Apoferritin bind inconclusive
O=c1ccc(/C=C/c2ccccc2)nn1Cc1ccc(Cl)cc1Cl	ClpP mod 28µM
Cc1cccc(CS(=O)(=O)Cc2ccc(C(=O)NCCCN3CCOCC3)o2)c1	ClpP mod 28µM
